# Reference: US8003630B2, “Combinatorial therapies for the treatment of neoplasias using the opioid growth factor receptor” (The Penn State Research Foundation, priority 2004, dated 2011)
# How the values were obtained:
# MiaPaCa-2 cells = test: Gemcitabine growth curve, actual cell counts; type: cell-based, human; details: MiaPaCa-2 cell counts, gemcitabine 10^−7 M or OGF 10^−6 M alone
# SCC-1 cells [1] = test: Apoptosis, caspase-3 activity by flow cytometry in SCC-1 cells; type: cell-based, human
# Protocol: Caspase-3-FITC positive staining was used to characterize early stages of apoptosis (29). SCC-1 cells were seeded into 6-well plates and treated with drugs beginning 24 hr later; drugs and media were replaced daily. Cells were harvested after 1, 3 and 6 days of drug treatment, and prepared according to manufacturer's recommendations for FACS analysis (FACS cell sorter with a 15 mW argon ion laser at 488 nm; Becton, Dickinson and Company, Franklin Lakes, N.J.). For caspase-3 identification, the APO-ACTIVE 3 antibody detection kit (Cell Technology, Mountain View, Calif.) was used. Three samples from each treatment were analyzed at each time point. The percent gated cells recorded by flow cytometry was considered caspase positive.
# OGFr = target: T1, OGFr (Homo sapiens, UniProt Q9NZT2); test: Receptor binding analysis of OGFr in SCC-1 tumors from treated mice
# T1 construct: Tumor tissues from some mice in each treatment group were removed at the time of death; from tissue; host or cells: SCC-1 squamous cell carcinoma xenograft tumors grown subcutaneously in nude mice
# T1 sequence (Q9NZT2 1-677): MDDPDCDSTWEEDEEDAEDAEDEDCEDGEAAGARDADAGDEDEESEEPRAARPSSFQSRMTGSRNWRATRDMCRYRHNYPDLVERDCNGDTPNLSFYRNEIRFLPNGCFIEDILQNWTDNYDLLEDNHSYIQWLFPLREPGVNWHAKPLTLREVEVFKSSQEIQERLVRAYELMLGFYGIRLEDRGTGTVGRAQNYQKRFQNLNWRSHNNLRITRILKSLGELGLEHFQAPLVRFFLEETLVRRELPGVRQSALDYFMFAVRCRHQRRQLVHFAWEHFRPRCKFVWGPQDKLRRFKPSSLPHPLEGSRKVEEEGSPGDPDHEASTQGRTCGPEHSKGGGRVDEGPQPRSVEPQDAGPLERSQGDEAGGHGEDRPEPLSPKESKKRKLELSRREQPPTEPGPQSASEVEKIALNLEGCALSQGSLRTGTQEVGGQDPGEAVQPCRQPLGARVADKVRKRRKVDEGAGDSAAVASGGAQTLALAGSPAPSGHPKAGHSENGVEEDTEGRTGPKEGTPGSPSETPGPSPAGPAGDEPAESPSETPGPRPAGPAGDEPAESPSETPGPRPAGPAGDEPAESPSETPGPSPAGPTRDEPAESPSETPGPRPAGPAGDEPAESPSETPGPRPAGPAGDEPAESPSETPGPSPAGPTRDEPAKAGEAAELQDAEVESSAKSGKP
# Protocol: Tumor tissues from some mice in each treatment group were removed at the time of death, washed free of blood and connective tissue, and immediately frozen in liquid nitrogen. Tissues were assayed following the procedures published previously [ 16]. Saturation binding isotherms were generated using GraphPad Prism software; binding affinity (Kd) and capacity (Bmax) values were provided by the computer software.
# MIA PaCa-2 cells = test: Growth assays of MIA PaCa-2 cells (MTS assay or cell counting), Example 7; type: cell-based, human; details: for decrease in cell number relative to controls: OGF 10^−6 M and/or gemcitabine 10^−8 M
# Protocol: MIA PaCa-2 and PANC-1 human pancreatic adenocarcinoma cell lines were purchased from the American Type Culture Collection (Manasass, Va.). MIA PaCa-2 cells were derived from an undifferentiated epithelial carcinoma occurring in the body and tail of the pancreas in a person. The PANC-1 cells were derived from an undifferentiated carcinoma from the head of the pancreas in a person. MIA PaCa-2 and PANC-1 cells were grown in Dulbecco's MEM (modified) media; media was supplemented with 10% fetal calf serum, 1.2% sodium bicarbonate, and antibiotics (5,000 Units/ml penicillin, 5 mg/ml streptomycin, 10 mg/ml neomycin), and the cells were maintained in a humidified atmosphere of 7% CO2/93% air at 37° C.
# MIA PaCa-2 cells were seeded at equivalent amounts into either 75 cm^2 flasks, 6-well plates, or 96-well plates (Falcon) and counted 24 hr later to determine plating efficiency. Growth assays for PANC-1 cells were conducted in 6-well plates (Falcon). Compounds or sterile water were added beginning 24 hr after seeding (=0 hr), and both media and compounds were replaced daily. All drugs were prepared in sterile water and dilutions represent final concentrations of the compounds.
# Cell viability was determined by trypan blue staining. At least two aliquots per flask or 4-10 wells/treatment were counted at each time.
# SCC-1 cells [2] = test: Growth curves of SCC-1 cells, cell proliferation (MTT) assay, absorbency; details: carboplatin 10^−6 M and/or OGF 10^−6 M
# SCC-1 cells [3] = test: DNA synthesis, BrdU incorporation into SCC-1 cells; type: cell-based, human; details: treatment for 24 hours
substance,measurement,setting,value
[Met^5]-enkephalin [OGF],decrease in cell number relative to controls,MiaPaCa-2 cells; 48 h,15.5%
same,decrease in cell number relative to controls,MiaPaCa-2 cells; 72 h,17.6%
same,decrease in cell number relative to controls,MiaPaCa-2 cells; 96 h,16.7%
same,"caspase positive cells, fold more than in control cultures",SCC-1 cells [1]; 3 days,No change from control levels
same,"caspase reactive cells, fold more than in control cultures",SCC-1 cells [1]; 6 days,No change from control levels
same,binding capacity (Bmax) relative to control subjects,OGFr,~2 fold
same,decrease in cell number relative to controls,MIA PaCa-2 cells; 48 hr,16%
same,decrease in cell number relative to controls,MIA PaCa-2 cells; 72 hr,18%
same,decrease in cell number relative to controls,MIA PaCa-2 cells; 96 hr,17%
same,inhibition of cell number relative to controls,"MIA PaCa-2 cells; opioids 10^−6 M daily, 96 hr",16%
same,decrease in cell number relative to controls,SCC-1 cells [2]; 48 h,8.2%
same,decrease in cell number relative to controls,SCC-1 cells [2]; 72 h,8.4%
same,decrease in cell number relative to controls,SCC-1 cells [2]; 96 h,9.7%
same,decrease in the number of BrdU positive cells relative to controls,SCC-1 cells [3],31%
